Laboratory results taken from PubChem BioAssay AID800 (PCMD, 2007).
Values joined by “and” are separate entries in the source; they are usually repeats but may differ in a detail not shown here. Identical values can stand only once. This is a selection; strong and weak results do not stand in their true shares. Active and inactive are the calls of the source. Rule as the data show it: active = inhibition above about 40%; inactive = the rest.

Protein sequences, listed by entry. Tags and fused reporters are not part of them. Lines headed by an entry give the natural chain unless they say otherwise; changes in a name come on top.
UniProt P00748: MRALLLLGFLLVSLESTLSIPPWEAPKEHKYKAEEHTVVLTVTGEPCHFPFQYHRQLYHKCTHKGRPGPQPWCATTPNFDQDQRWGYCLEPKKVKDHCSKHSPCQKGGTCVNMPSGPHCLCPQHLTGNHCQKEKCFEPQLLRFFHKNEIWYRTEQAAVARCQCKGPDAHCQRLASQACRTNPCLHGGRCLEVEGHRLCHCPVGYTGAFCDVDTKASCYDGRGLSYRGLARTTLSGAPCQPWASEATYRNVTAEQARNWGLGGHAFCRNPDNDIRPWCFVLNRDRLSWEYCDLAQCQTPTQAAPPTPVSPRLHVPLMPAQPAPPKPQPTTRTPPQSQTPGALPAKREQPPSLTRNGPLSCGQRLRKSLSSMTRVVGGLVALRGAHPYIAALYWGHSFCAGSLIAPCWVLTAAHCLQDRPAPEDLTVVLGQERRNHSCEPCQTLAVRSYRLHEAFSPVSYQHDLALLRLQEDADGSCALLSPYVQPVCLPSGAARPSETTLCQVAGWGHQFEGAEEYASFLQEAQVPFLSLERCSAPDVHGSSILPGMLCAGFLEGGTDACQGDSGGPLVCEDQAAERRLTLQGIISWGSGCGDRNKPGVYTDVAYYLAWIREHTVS

target: Coagulation factor XII (Homo sapiens) (UniProt P00748); assay: human FXIIa protease inhibitors, primary screen, biochemical, 1536-well (AID 800); settings: purified FXIIa, Boc-QGR-AMC fluorogenic substrate, 2 h; at 5 µM; hits give high values;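 also: 0% = enzyme with no compound and 100% = blank without enzyme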

Row | SMILES | inhibition
1 | CCOC(=O)NC(Sc1ccccc1)C(Cl)(Cl)Cl (stereo not drawn) | inactive: 11.8%
2 | Cc1ccc(NP(=O)(Oc2cccc(C)c2)Oc2cccc(C)c2)nc1 | inactive: 7.15%
3 | c1ccc(-c2nn[nH]n2)c(-c2nn[nH]n2)c1 | inactive: 3.44%
4 | CCNC(=S)/N=C(\N)N[N+](=O)[O-] | inactive: 0.08%
5 | CCC(=O)N1C2C3N(C(=O)CC)C1C1N(C(=O)CC)C(C(N1C(=O)CC)N3C(=O)CC)N2C(=O)CC | inactive: 27.2%
6 | Cc1ccc(OP(=O)(Nc2ccccn2)Oc2ccc(C)cc2)cc1 | inactive: 4.05%
7 | CC(=O)NC(SC(=S)N(CC(C)C)CC(C)C)C(Cl)(Cl)Cl (stereo not drawn) | inactive: 22.9%
8 | COC(=O)c1cc2c(s1)N=C(c1ccccc1)N(C)P2(=O)N1CCOCC1 (stereo not drawn) | inactive: 16.4%
9 | CN(C)C(=O)Oc1noc2ccccc12 | inactive: 8.77%
10 | O=c1c2cc([N+](=O)[O-])ccc2[nH]c2c([N+](=O)[O-])cc([N+](=O)[O-])cc12 | inactive: 7.59%
11 | Cc1ccccc1OP(=O)(Nc1ccccn1)Oc1ccccc1C | inactive: 11.9%
12 | CCOc1ccc(C2=NCC(CBr)S2)cc1 (stereo not drawn) | inactive: 6.47%
13 | O=P1(Nc2nc3ccc(Cl)cc3s2)COc2ccccc2O1 (stereo not drawn) | inactive: 13.9%
14 | CC(C)(C)C(=O)NC(Sc1ccccc1)C(Cl)(Cl)Cl (stereo not drawn) | inactive: -1.24%
15 | C[C@@H]1C=CCP(=O)(Oc2ccccc2)O1 (stereo partly drawn) | inactive: 6.4%
16 | C[C@H]1OP(=O)(Oc2ccccc2)C[C@@H]2O[C@@H]21 (stereo partly drawn) | inactive: 7.85%
17 | CC(=O)Nc1ccc(Oc2c([N+](=O)[O-])cc([N+](=O)[O-])cc2[N+](=O)[O-])cc1 | inactive: 4.86%
18 | CC(=O)Nc1ccc([As](=O)(O)O)c(O)c1 | inactive: 3.65%
19 | O=P(Nc1nccs1)(c1ccccc1)c1ccccc1 | inactive: -3.43%
20 | CC(C)C(=O)NC(Sc1ccccc1)C(Cl)(Cl)Cl (stereo not drawn) | inactive: 6.71%
21 | c1nnnn1CCn1cnnn1 | inactive: 0.38%
22 | C[C@H]1OP(=O)(Oc2ccccc2)[C@H](O)[C@H](O)[C@H]1N=[N+]=[N-] (stereo partly drawn) | inactive: 8.14%
23 | O=P(Nc1nc2ccccc2s1)(c1ccccc1)c1ccccc1 | inactive: 0.22%
24 | O=[As](O)(c1ccccc1)c1ccc(O)cc1 | inactive: 3.46%
25 | O=[N+]([O-])c1ncn(CCn2cnc([N+](=O)[O-])n2)n1 | inactive: 0.53%
26 | CC(=O)NC(SC(=S)N(C)C)C(Cl)(Cl)Cl (stereo not drawn) | inactive: 7.67%

Row | SMILES | inhibition
27 | O=C(OC1CN2CCC1CC2)c1cccc(Cl)c1 (stereo not drawn) | inactive: 14.3%
28 | Nc1ccc([As](=O)(O)c2ccc([N+](=O)[O-])cc2)cc1 | inactive: 3.68%
29 | C(Cc1nn[nH]n1)Cc1nn[nH]n1 | inactive: 10%
30 | O=C(Nc1cc([As](=O)(O)O)ccc1O)c1ccccc1 | inactive: 4.81%
31 | O=[N+]([O-])c1ncn(CCn2ncnc2[N+](=O)[O-])n1 | inactive: 5.59%
32 | CC(C)(C)C(=O)NC(Sc1ccncn1)C(Cl)(Cl)Cl (stereo not drawn) | inactive: 0.69%
33 | O=C(O)CNc1ccc([As](=O)(O)O)cc1 | inactive: 7.32%
34 | O=[N+]([O-])c1cccc(NC2=NCC(CBr)S2)c1 (stereo not drawn) | inactive: 8.92%
35 | COc1ccc(C2=NCC(CBr)S2)cc1 (stereo not drawn) | inactive: 4.02%
36 | O=[N+]([O-])c1cc([N+](=O)[O-])c(CCNc2ccccc2)c([N+](=O)[O-])c1 | inactive: 5.43%
37 | CCc1nc2c(n1)c1c(non1O)c1c2no[n+]1[O-] | inactive: 28%
38 | Cc1ccc(NP(=O)(Oc2ccccc2)Oc2ccccc2)nc1 | inactive: -1.54%
39 | CC(=O)N1C2C3N(C(C)=O)C1C1N(C(C)=O)C(C(N1C(C)=O)N3C(C)=O)N2C(C)=O | inactive: 7.87%
40 | O=[N+]([O-])c1cccc2n[nH]nc12 | inactive: 11.6%
41 | CCN(/C(=N/P(=O)(N1CCOCC1)N1CCOCC1)N1CCOCC1)c1ccc(OC)cc1 | inactive: 3.3%
42 | C[N+]1=C2C=CC=CC=C2SC12C([N+](=O)[O-])=CC([N+](=O)[O-])=C[C-]2[N+](=O)[O-] (stereo not drawn) | inactive: 9.87%
43 | Nc1ccc([As](=O)(O)c2ccc(N)cc2)cc1 | inactive: 12.3%
44 | CC1CCN(C(=O)Oc2c(Cl)cc(Cl)c3cccnc23)CC1 | inactive: 13.7%
45 | CN(C)C(=O)OCCc1n(C)cc[n+]1C | inactive: 0.59%
46 | CC(C)=N/N=C(\N)N[N+](=O)[O-] | inactive: 2.82%
47 | Cc1ccc(N/C(=N/P(=O)(N2CCOCC2)N2CCOCC2)N2CCOCC2)cc1 | inactive: 10.2%
48 | NC(=O)c1cc([N+](=O)[O-])cc([N+](=O)[O-])c1N | inactive: 4.99%
49 | Clc1ccc(Cl)c(NC2=NCC(CBr)S2)c1 (stereo not drawn) | inactive: 6.45%
50 | CN1CCCC(OC(=O)C(c2ccccc2)c2ccccc2)C1 (stereo not drawn) | inactive: 23.5%
51 | Cc1ccc(OP(=O)(Nc2nccs2)Oc2ccc(C)cc2)cc1 | inactive: 8.58%
52 | COc1ccccc1OP(=O)(Nc1ccc(C)cn1)Oc1ccccc1OC | inactive: 2.71%

Row | SMILES | inhibition
53 | Cc1c2non([O-])c-2c(C)[n+](=O)[n+]1[O-] | inactive: 25.2%
54 | O=C(NC(Sc1ccncn1)C(Cl)(Cl)Cl)c1ccccc1 (stereo not drawn) | inactive: -2.02%
55 | Oc1ccccc1CNc1ccccn1 | inactive: 15.6%
56 | CC(C)CC(=O)NC(Sc1ccc(Cl)cc1)C(Cl)(Cl)Cl (stereo not drawn) | inactive: 15.7%
57 | Nc1cc(N)c2nonc2c1[N+](=O)[O-] | inactive: 15.1%
58 | O=P(Nc1nc2ccc(Cl)cc2s1)(c1ccccc1)c1ccccc1 | inactive: 9.69%
59 | O=C(O)c1ccccc1[As](=O)(O)O | inactive: 5.22%
60 | CC(=O)Nc1ccc([As](=O)(O)O)cc1 | inactive: 12.1%
61 | Cc1ccc(NP(=O)(Oc2ccccc2F)Oc2ccccc2F)nc1 | inactive: 36.8%
62 | CCOP(=O)(Nc1ccccc1)OCC | inactive: 15.1% and inactive: 8.16%
63 | Cc1cc(SC(NC(=O)c2ccc(F)cc2)C(Cl)(Cl)Cl)ncn1 (stereo not drawn) | inactive: 5.6%
64 | Nc1cccc2ccc([As](=O)(O)O)cc12 | inactive: 6.12%
65 | CCN(N=Nc1nonc1N)c1nonc1N | inactive: 5.25%
66 | O=[As](O)(c1ccc(O)cc1)c1ccccc1O | inactive: 7.02%
67 | C[As](=O)(O)c1cccc(C(=O)O)c1 | inactive: 4.65%
68 | Cc1ccc(OP(=O)(Nc2ccc([N+](=O)[O-])cn2)Oc2ccc(C)cc2)cc1 | inactive: 3.07%
69 | Cc1ccc2nc3c(c(C)c2c1)CC(C(Cl)Cl)S3 (stereo not drawn) | inactive: 7.44%
70 | ClCCSc1nnc(-c2cccnc2)o1 | inactive: 9.48%
71 | CC(C)c1ccc(OP(=O)(Nc2ccccn2)Oc2ccccc2F)cc1 (stereo not drawn) | inactive: 6.84%
72 | O=[N+]([O-])c1cc([N+](=O)[O-])c(-c2ccn[nH]2)s1 | inactive: 8.55%
73 | CCN(CC)C(=S)SC(NC=O)C(Cl)(Cl)Cl (stereo not drawn) | inactive: 5.73%
74 | Cc1c2c(nc3ccccc13)SC(C(Cl)Cl)C2 (stereo not drawn) | inactive: 7.33%
75 | Cc1cc(=O)[nH]c(N[N+](=O)[O-])n1 | inactive: 3.29%
76 | O=C(OC1CN2CCC1CC2)C12CC3CC(CC(C3)C1)C2 (stereo not drawn) | inactive: -9.5%
77 | COc1cc(I)ccc1[As](=O)(O)O | inactive: 11.8%
78 | COc1ccc2nc(NP(=O)(c3ccccc3)c3ccccc3)sc2c1 | inactive: 4.85%

Row | SMILES | inhibition
79 | COc1ccc(N/C(=N/P(=O)(N2CCOCC2)N2CCOCC2)N2CCOCC2)cc1 | inactive: 3.23%
80 | COP1(=S)c2c(C)nn(CCC#N)c2N=C(c2ccc(F)cc2)N1C (stereo not drawn) | inactive: 1.4%
81 | O=C(COc1ccccc1)OC1CN2CCC1CC2 (stereo not drawn) | inactive: -3.45%
82 | CCOC(=O)c1ccc(NC(=O)C(C)(CCl)SC)cc1 (stereo not drawn) | inactive: 11.2%
83 | CCC(C)N(CC(C)C)C(=S)SC(NC(C)=O)C(Cl)(Cl)Cl (stereo not drawn) | inactive: 19.9%
84 | CCOC(=O)Nc1ccc([As](=O)(O)O)c(O)c1 | inactive: 7.25%
85 | Cc1cc(SC(NC(=O)c2ccccc2)C(Cl)(Cl)Cl)nc(C(C)C)n1 (stereo not drawn) | inactive: 7.27%
86 | CCOC(=O)Nc1cccc([As](=O)(O)O)c1 | inactive: 5.16%
87 | Cc1cc(SC(NC=O)C(Cl)(Cl)Cl)ncn1 (stereo not drawn) | inactive: 8.05%
88 | O=P(Nc1ccccn1)(c1cccc2ccccc12)c1cccc2ccccc12 | inactive: -5.94%
89 | O=[N+]([O-])c1ccc(Nc2ccc(Oc3ccc([N+](=O)[O-])cc3[N+](=O)[O-])cc2)c([N+](=O)[O-])c1 | inactive: 6.55%
90 | CC1CCC(C(C)C)C(OP(=O)(Nc2ccccn2)c2ccccc2)C1 (stereo not drawn) | inactive: 6.39%
91 | Cc1nn(-c2ccccc2)c2c1P(=O)(N1CCOCC1)N(C)C(c1ccccc1)=N2 (stereo not drawn) | inactive: -0.78%
92 | CN(C)C1(CNC(=O)c2ccc(S(C)(=O)=O)cc2)CCCCC1 | inactive: 0.83%
93 | O=C(/C=C/c1ccccc1)OC1CN2CCC1CC2 (stereo not drawn) | inactive: 11.4%
94 | O=P1(Nc2ncccn2)COc2ccccc2OC1 | inactive: -8.5%
95 | Nc1cccc([As](=O)(O)c2ccccc2)c1 | inactive: 9.88%
96 | O=P1(Nc2ccc(Br)cn2)COc2ccccc2OC1 | inactive: 9.71%
97 | O=[As](O)(c1cccs1)c1cccs1 | inactive: 7.14%
98 | Cc1ccc(OCC(=O)OC2CN3CCC2CC3)cc1 (stereo not drawn) | inactive: 19.5%
99 | O=P1(Nc2ccccn2)COc2ccccc2OC1 | inactive: -2.21%
100 | CCOP(=O)(Nc1ccc(C)cn1)OCC | inactive: 10%
101 | CC(C)(C)C(=O)NC(Sc1ncccn1)C(Cl)(Cl)Cl (stereo not drawn) | inactive: 11.2%
102 | Clc1n[nH]nc1-c1nn[nH][15n]1 | inactive: 15.8%
103 | CC(C)/C=N\N=C(\N)N[N+](=O)[O-] | inactive: 11.2%
